These are literature values, as cited in patent US12428648B2, “Compositions comprising peptides that block transmission of orthotospoviruses” (priority 2019, dated 2025).

Amino acid sequences for entries named in this document (tags omitted). Residues count along the entry.
UniProt P05106, 27-788: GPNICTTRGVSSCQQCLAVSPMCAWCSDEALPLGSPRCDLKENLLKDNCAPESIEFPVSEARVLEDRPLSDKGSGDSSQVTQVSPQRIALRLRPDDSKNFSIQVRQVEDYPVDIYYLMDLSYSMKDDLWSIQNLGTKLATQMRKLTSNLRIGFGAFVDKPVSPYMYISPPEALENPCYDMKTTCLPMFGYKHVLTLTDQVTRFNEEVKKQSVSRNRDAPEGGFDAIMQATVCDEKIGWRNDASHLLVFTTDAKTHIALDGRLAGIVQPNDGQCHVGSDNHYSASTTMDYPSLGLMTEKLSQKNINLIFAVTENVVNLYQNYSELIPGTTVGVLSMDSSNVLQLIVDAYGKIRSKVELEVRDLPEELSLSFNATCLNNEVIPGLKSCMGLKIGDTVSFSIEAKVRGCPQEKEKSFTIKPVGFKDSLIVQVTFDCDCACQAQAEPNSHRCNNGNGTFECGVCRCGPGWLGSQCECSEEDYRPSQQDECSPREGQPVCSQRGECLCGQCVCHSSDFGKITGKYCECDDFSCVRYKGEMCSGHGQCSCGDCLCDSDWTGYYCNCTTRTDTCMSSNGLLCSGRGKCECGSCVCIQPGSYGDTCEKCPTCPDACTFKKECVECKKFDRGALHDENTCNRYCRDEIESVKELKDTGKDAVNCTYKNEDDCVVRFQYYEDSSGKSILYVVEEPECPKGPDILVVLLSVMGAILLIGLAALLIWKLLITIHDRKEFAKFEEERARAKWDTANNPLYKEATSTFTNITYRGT
UniProt P06756, 31-1048: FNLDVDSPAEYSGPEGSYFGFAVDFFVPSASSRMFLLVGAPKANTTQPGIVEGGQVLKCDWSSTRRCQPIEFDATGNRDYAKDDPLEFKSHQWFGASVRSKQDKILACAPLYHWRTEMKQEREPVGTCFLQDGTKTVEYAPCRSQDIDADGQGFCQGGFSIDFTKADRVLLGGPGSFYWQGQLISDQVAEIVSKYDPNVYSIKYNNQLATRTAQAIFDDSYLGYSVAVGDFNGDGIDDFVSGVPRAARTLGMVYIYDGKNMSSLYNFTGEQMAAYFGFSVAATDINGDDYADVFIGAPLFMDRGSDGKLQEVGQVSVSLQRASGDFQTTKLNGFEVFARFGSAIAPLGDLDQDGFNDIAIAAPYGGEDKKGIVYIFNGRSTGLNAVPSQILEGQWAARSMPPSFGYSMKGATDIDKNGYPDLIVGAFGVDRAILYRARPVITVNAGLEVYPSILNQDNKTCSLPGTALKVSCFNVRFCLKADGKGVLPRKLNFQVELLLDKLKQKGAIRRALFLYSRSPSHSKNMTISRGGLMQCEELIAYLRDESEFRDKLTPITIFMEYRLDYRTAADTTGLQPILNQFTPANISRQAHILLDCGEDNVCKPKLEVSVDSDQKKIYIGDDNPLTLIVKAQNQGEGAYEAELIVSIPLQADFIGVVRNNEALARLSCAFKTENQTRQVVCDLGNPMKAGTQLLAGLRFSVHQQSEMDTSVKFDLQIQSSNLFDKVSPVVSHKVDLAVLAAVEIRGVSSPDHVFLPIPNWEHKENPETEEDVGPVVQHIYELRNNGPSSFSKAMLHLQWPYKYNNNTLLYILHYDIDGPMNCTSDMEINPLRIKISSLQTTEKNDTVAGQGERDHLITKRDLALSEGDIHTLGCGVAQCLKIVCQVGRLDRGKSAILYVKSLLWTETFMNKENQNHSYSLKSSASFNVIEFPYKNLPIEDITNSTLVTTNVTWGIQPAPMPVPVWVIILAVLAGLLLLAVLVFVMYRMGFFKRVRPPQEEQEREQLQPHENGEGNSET

The data set has as its target αvβ3 (Homo sapiens, UniProt P05106+P06756). As to conditions: Hersel et al., 2003; cited from earlier work.

On to cyclo (RGDf(NMe)V), for which the “integrin selectivity, in words” value is “selective for αvβ3”.
